What was measured:
[1] = test system: P. falciparum male gametocytes; experiment: P. falciparum Dual Gamete Formation Assay (PfDGFA), male readout (exflagellation); format: cell-based, Plasmodium falciparum NF54
Method: (§1) P. falciparum NF54 (originally isolated from an imported malaria case in the Netherlands in the 1980s; BEI Resources, cat. No. MRA-1000) strain asexual parasites were maintained between 0.3–5% parasitaemia by regular passage in complete culture medium (RPMI supplemented with 25 mM HEPES, 50 μg ml^−1 hypoxanthine, 4.8 g l^−1 NaHCO3, 2mM L-glutamine, 5% pooled type AB serum, 0.5% Albumax II (Gibco)) at 4% haematocrit in washed whole blood (National Blood and Transfusion Service or Centro de Transfusiones de la Comunidad de Madrid CTCM) under a 1% O2/3% CO2/96% N2 environment. […] On Day 14, the maturity of gametocytes was assessed by quantifying male gametogenesis (exflagellation). […] After 20 min at room temperature, exflagellation was accurately quantified as described in Delves et al. 2016 [17].
(§2) The Pf DGFA was performed as described in Delves et al. 2016 [17]. […] Exflagellation was recorded by capturing 10 frames over 1 s under brightfield illumination using a x4 objective with a 1.5x zoom (effectively x6) attached to an automated Nikon Ti fluorescence microscope. […] The plates were then returned to the microscope and female gametes imaged at x6 using fluorescence microscopy.
(§3) Exflagellation centres and female gametes were quantified using custom image analysis pipelines developed within ICY Bioimage Analysis (https://icy.bioimageanalysis.org/).

[2] = test system: P. falciparum female gametocytes; experiment: P. falciparum Female Gametocyte Activation Assay (PfFGAA); format: cell-based, Plasmodium falciparum; conditions: Mean TOX HepG2 over FGAA IC50; GREEN = >10-fold; RED = <10-fold
Excerpt: (§4) Fig 1 The activity of TCAMS compound identified in the Pf DGFA screen. (A) 85 molecules were confirmed active in the Pf DGFA. 58 were previously identified in one or more transmission-blocking screens. […] No molecule was identified with >4.7-fold greater activity against female gametocytes. Abbreviations (IC50 = concentration giving 50% inhibition, PbODA = P. berghei Ookinete Development Assay, PfDGFA = P. falciparum Dual Gamete Formation Assay, PfFGAA = P. falciparum Female Gametocyte Activation Assay, PfGCT = P. falciparum Gametocyte Viability ATP Assay).

[3] = test system: P. berghei ookinete development; experiment: P. berghei Ookinete Development Assay (PbODA); format: cell-based, Plasmodium berghei; conditions: Mean TOX HepG2 over Pb ODA value; GREEN = >10-fold; RED = <10-fold
Excerpt: as §4

[4] = test system: P. falciparum female gametocytes; experiment: P. falciparum Dual Gamete Formation Assay (PfDGFA), female readout (Pfs25-positive female gametes); format: cell-based, Plasmodium falciparum NF54
Method: as §1, §2, §3

CC(C)(CN)c1nc(-c2ccc(Cl)c(O)c2)c(-c2ccncc2)[nH]1.Cl [TC61]
Cytotox ratio Pf Male [1]: 7.9 | Cytotox ratio Pf FGAA [2]: 7.6 | Cytotox ratio Pb Ookinete [3]: 8186.9 | Cytotox ratio Pf Female [4]: 26.5

CC(C)(CN)c1nc(-c2ccc(Cl)c(O)c2)c(-c2ccncc2)[nH]1.Cl [TCMDC-140369]
Selectivity Ratio M ([1]; HepG2 Tox50 versus male IC50): 19.28 | Selectivity ratio F ([4]; HepG2 Tox50 versus female IC50): 64.42

Reference: publication PMC10584170, “Machine learning-based phenotypic imaging to characterise the targetable biology of Plasmodium falciparum male gametocytes for the development of transmission-blocking antimalarials” (PLOS Pathogens, 2023)
